Experimental findings from ChEMBL document CHEMBL1649086, “Evaluation of novel N1-methyl-2-phenylindol-3-ylglyoxylamides as a new chemotype of 18 kDa translocator protein-selective ligand suitable for the development of positron emission tomography radioligands” (J Med Chem, 2011) are described below.

Amino acid sequences for entries named in this document (tags omitted).
UniProt P30536, whole entry: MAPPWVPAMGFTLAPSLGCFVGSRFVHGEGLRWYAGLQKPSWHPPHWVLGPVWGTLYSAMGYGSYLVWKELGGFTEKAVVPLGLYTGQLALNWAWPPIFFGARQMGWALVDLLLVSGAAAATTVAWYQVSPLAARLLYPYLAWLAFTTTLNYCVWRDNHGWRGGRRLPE

What all share (format): cell membranes
Test [1] addresses T1, Translocator protein (Homo sapiens, UniProt P30536). Description: Displacement of [11C]PK11195 from high affinity binding site of TSPO in human brain membrane homogenate by scintillation counting.
The target of test [2] is T1, Translocator protein. Description: Displacement of [11C]PK11195 from mixed affinity binding site of TSPO in human brain membrane homogenate by scintillation counting.
Test [3] has as its target T1, Translocator protein. Description: Displacement of [11C]PK11195 from low affinity binding site of TSPO in human brain membrane homogenate by scintillation counting.

Regarding `CCCN(CCC)C(=O)C(=O)c1c(-c2ccc([N+](=O)[O-])cc2)n(C)c2ccccc12`, the Ki in test [1] came out at 1.57 nM; in test [2] it was 1.82 nM; in test [3] it was 9.53 nM.
